Assay results taken from PubChem BioAssay.
Only a part is listed here, and it is no random draw. Activity calls are given as the source filed them.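 Rule for the calls: active = membrane potential signal drops by more than 5 SD from the mean control signal, in both duplicate plates; inactive = the rest.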

Experiment: modulation of acetylcholine-evoked membrane potential, parental HEK293, confirmation, counter-screen for TRPC6 modulator project, cell-based, second counter-screen, membrane potential dye (AID 488926);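 note: plate controls were acetylcholine ECmax control wells for no effect and buffer only wells for full effect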
Settings: parental HEK293, membrane potential dye fluorescence; at 10 µM; active compounds read high; after compound, maximal acetylcholine stimulation

Row | Structure (SMILES) | inhibition
1 | CN1CCN(CCOC(=O)C(O)(c2ccccc2)c2ccccc2)CC1 | active: 79%
2 | O=C(OC1CN2CCC1CC2)C1c2ccccc2C=Cc2ccccc21 (configuration not stated) | active: 88.5%
